The values that follow come from patent US10000498B2, “Selective proton coupled folate transporter and folate receptor, and GARFTase inhibitor compounds and methods of using the same” (Duquesne University of the Holy Spirit, priority 2008, dated 2018).

The experiment relates to R2-hPCFT#4 cells (hPCFT-expressing R2 CHO). Put plainly: cells. The following applies: Cricetulus griseus, 96 h, read-out: Growth inhibition 50% inhibitory concentration, R2-hPCFT#4.
Turning to `Nc1nc2[nH]c(CCCCc3ccc(C(=O)N[C@@H](CCC(=O)O)C(=O)O)s3)cc2c(=O)[nH]1` [AAG154353, (S)-2-({5-[4-(2-amino-4-oxo-4,7-dihydro-3H-pyrrolo[2,3-d]pyrimidin-6-yl)-butyl]thiophene-2-carbonyl}-amino)-pentanedioic acid], the IC50 was found to be 48.2 ± 17.8 nM. For `Nc1nc2[nH]cc(CCc3ccc(C(=O)N[C@@H](CCC(=O)O)C(=O)O)cc3)c2c(=O)[nH]1` [Pemetrexed, pemetrexed] the value was 27.5 ± 3.26 nM. In the case of `Nc1nc2c(c(=O)[nH]1)C[C@@H](CCc1ccc(C(=O)N[C@@H](CCC(=O)O)C(=O)O)cc1)CN2` [Lometrexol, lometrexol, reference compound] it was 183 ± 12.6 nM; in that of `Cc1nc2ccc(CN(C)c3ccc(C(=O)N[C@@H](CCC(=O)O)C(=O)O)s3)cc2c(=O)[nH]1` [Raltitrexed, raltitrexed], 63.8 ± 3.26 nM.

On to `CN(Cc1cnc2nc(N)nc(N)c2n1)c1ccc(C(=O)N[C@@H](CCC(=O)O)C(=O)O)cc1` [Methotrexate, methotrexate], for which the IC50 amounted to 143 ± 29.4 nM.
